The values that follow are results of earlier work, collected in PubChem BioAssay AID977610.

One may read the Ki as the equilibrium dissociation constant of an inhibitor or competing ligand from its target.

What all share (assay): PubChem AID 977610
One data set has as its target Cys-free mutant protein. To be noted: PDB protein-ligand complexes, literature Ki; protein: Cys-free mutant protein; PDB entry 2J9H.
A further data set has as its target BPAO. Particulars: PDB protein-ligand complexes, literature Ki; protein: BPAO; PDB entry 2PNC.
The target in data set [1] is HIV-1 protease. Particulars: PDB protein-ligand complexes, literature Ki; protein: HIV-1 protease; PDB entry 2Q5K.
The target of data set [2] is protease retropepsin(PR1). Particulars: PDB protein-ligand complexes, literature Ki; protein: protease retropepsin(PR1); PDB entry 2RKG.
The target in data set [3] is hiv-1 protease. To be noted: PDB protein-ligand complexes, literature Ki; protein: hiv-1 protease; PDB entry 1MUI.
Data set [4] deals with protease retropepsin(PR2). To be noted: PDB protein-ligand complexes, literature Ki; protein: protease retropepsin(PR2); PDB entry 2RKF.
Another data set deals with wild-type HIV-1 protease. Particulars: PDB protein-ligand complexes, literature Ki; protein: wild-type HIV-1 protease; PDB entry 2QHZ.
In the next data set the target is human PNP. To be noted: PDB protein-ligand complexes, literature Ki; protein: human PNP; PDB entry 3BGS.
The next data set addresses GcnA-I. Particulars: PDB protein-ligand complexes, literature Ki; protein: GcnA-I; PDB entry 2EPN.
Data set [5] has as its target beta-n-acetylhexosaminidase. To be noted: PDB protein-ligand complexes, literature Ki; protein: beta-n-acetylhexosaminidase; PDB entry 1HP5.
In the next data set the target is AgPNP. Particulars: PDB protein-ligand complexes, literature Ki; protein: AgPNP; PDB entry 2P4S.
For data set [6], the target named is purine nucleoside phosphorylase. Particulars: PDB protein-ligand complexes, literature Ki; protein: purine nucleoside phosphorylase; PDB entry 1N3I.
In data set [7] the target is Replicase polyprotein 1ab. To be noted: PDB protein-ligand complexes, literature Ki; protein: Replicase polyprotein 1ab; PDB entry 2Z9G.
A further data set has as its target fXa. To be noted: PDB protein-ligand complexes, literature Ki; protein: fXa; PDB entry 2VH0.
Another data set concerns the target CrtM. Particulars: PDB protein-ligand complexes, literature Ki; protein: CrtM; PDB entry 2ZCQ.
For another data set, the target named is NanB. Particulars: PDB protein-ligand complexes, literature Ki; protein: NanB; PDB entry 2VW2.
Another data set addresses 2IMA A. Particulars: PDB protein-ligand complexes, literature Ki; PDB entry 2IMA.
The next data set addresses Trichodiene synthase. Particulars: PDB protein-ligand complexes, literature Ki; protein: Trichodiene synthase; PDB entry 2Q9Y.
The next data set deals with factor Xa. Particulars: PDB protein-ligand complexes, literature Ki; protein: factor Xa; PDB entry 2VH6.
In a further data set the target is OleD. Particulars: PDB protein-ligand complexes, literature Ki; protein: OleD; PDB entry 2IYF.
Data set [8] deals with Geranylgeranyl pyrophosphate synthetase. To be noted: PDB protein-ligand complexes, literature Ki; protein: Geranylgeranyl pyrophosphate synthetase; PDB entry 2Q80.
Another data set addresses paLpxC. To be noted: PDB protein-ligand complexes, literature Ki; protein: paLpxC; PDB entry 2VES.
The next data set concerns the target human PPAR?LBD. To be noted: PDB protein-ligand complexes, literature Ki; protein: human PPAR?LBD; PDB entry 2P4Y.
The target in the next data set is E201Q 1-FEH IIa. Particulars: PDB protein-ligand complexes, literature Ki; protein: E201Q 1-FEH IIa; PDB entry 2AEZ.
The target in a further data set is IGF1RK-0P. To be noted: PDB protein-ligand complexes, literature Ki; protein: IGF1RK-0P; PDB entry 3D94.
Another data set concerns the target PRI84V. To be noted: PDB protein-ligand complexes, literature Ki; protein: PRI84V; PDB entry 2R3W.
The target in the next data set is PRI50V. Particulars: PDB protein-ligand complexes, literature Ki; protein: PRI50V; PDB entry 2R43.
A further data set addresses Vacc-TMPK. To be noted: PDB protein-ligand complexes, literature Ki; protein: Vacc-TMPK; PDB entry 2V54.
In another data set the target is human CK2a (hCK2?
To be noted: PDB protein-ligand complexes, literature Ki; protein: human CK2a (hCK2?; PDB entry 2PVM.

A further data set has as its target IDI-1. Particulars: PDB protein-ligand complexes, literature Ki; protein: IDI-1; PDB entry 2VNP.

Each structure is given as a SMILES string.

For the molecule `CCCCCCSC[C@H](NC(=O)CC[C@H](N)C(=O)O)C(=O)NCC(=O)O`, the Ki at Cys-free mutant protein was 410 µM.

Take `Clc1cccc(Cl)c1NC1=NCCN1`: the Ki on BPAO was 466 µM. Regarding `Cc1cccc(C)c1OCC(=O)N[C@@H](Cc1ccccc1)[C@@H](O)C[C@H](Cc1ccccc1)NC(=O)[C@H](C(C)C)N1CCCNC1=O`, the Ki on HIV-1 protease [1] is 5 pM; in data set [2], 0.0082 µM; on hiv-1 protease [3], 1.3 pM; in data set [4], 0.00083 µM.

`C/C(=C\C(=O)N[C@@H](Cc1ccccc1)[C@H](O)CN(Cc1cccs1)S(=O)(=O)c1cc(F)c(F)cc1F)C(F)(F)F`: the Ki on wild-type HIV-1 protease is 0.053 µM. Take `O=c1[nH]cnc2c(CN3C[C@@H](CO)[C@H](O)C3)c[nH]c12`: the Ki on human PNP was 0.00038 µM. For the molecule `CC1=N[C@@H]2[C@@H](O)[C@H](O)[C@@H](CO)O[C@@H]2S1`, the Ki was 0.06 µM at GcnA-I and 0.28 µM in [5]. `O=c1[nH]cnc2c(CN3C[C@H](CO)[C@@H](O)C3)c[nH]c12`: the Ki at AgPNP is 0.00031 µM; in data set [6], 0.0013 µM. With `c1ccccc1`, the Ki in [7] is 0.7 µM. Take `CN(C)Cc1nccn1-c1ccc(N2CC[C@H](NS(=O)(=O)/C=C/c3ccc(Cl)s3)C2=O)c(F)c1`: the Ki on fXa was 0.0031 µM. As to `O=P(O)(O)[C@@H](CCCc1cccc(Oc2ccccc2)c1)S(=O)(=O)O`, on CrtM, the Ki was 0.0015 µM. In the case of `O=S(=O)(O)CCNC1CCCCC1`, the Ki on NanB is 500 µM.

Regarding `O=C(/C=C/c1ccc(Cl)cc1Cl)NO`, the Ki on 2IMA A is 0.3 µM. On to `CC[N+](CC)(CC)Cc1ccccc1`, for which the inhibitory constant (Ki) on Trichodiene synthase is 36 µM. As for `CS(=O)(=O)c1ccccc1-c1ccc(N2CC[C@H](NS(=O)(=O)/C=C/c3ccc(Cl)s3)C2=O)c(F)c1`, the inhibition constant Ki on factor Xa was 0.0002 µM. For `CC[C@H]1OC(=O)[C@H](C)[C@@H](O[C@H]2C[C@@](C)(OC)[C@@H](O)[C@H](C)O2)[C@H](C)[C@@H](O[C@@H]2O[C@H](C)C[C@H](N(C)C)[C@H]2O)[C@](C)(O)C[C@@H](C)C(=O)[C@H](C)[C@@H](O)[C@]1(C)O`, at OleD, the Ki was 177 µM.

As to `CC(C)=CCC/C(C)=C/CC/C(C)=C/CC/C(C)=C/COP(=O)(O)OP(=O)(O)O`, the Ki in [8] was 25 µM.

Consider `O=C(NO)[C@@H](Cc1ccc2ccccc2c1)NS(=O)(=O)c1ccc2ccccc2c1`, for which the Ki at paLpxC was 0.02 µM. Regarding `COc1ccc2c(-c3c(C)n(Cc4cc(O[C@H](C)C(=O)O)ccc4Cl)c4cc(OC(F)(F)F)ccc34)noc2c1`, the Ki on human PPAR?LBD is 0.001 µM. Regarding `OC[C@H]1O[C@@](CO)(OC[C@@]2(O[C@H]3O[C@H](CO)[C@@H](O)[C@H](O)[C@H]3O)O[C@H](CO)[C@@H](O)[C@@H]2O)[C@@H](O)[C@@H]1O`, on E201Q 1-FEH IIa, the inhibition constant (Ki) was 3500 µM. On to `CN1CCN(C2CC(c3nc(-c4ccc5ccc(-c6ccccc6)nc5c4)c4c(N)nccn34)C2)CC1` (stereo not given), for which the Ki at IGF1RK-0P was 0.157 µM. Regarding `Nc1ccc(S(=O)(=O)N(Cc2ccccc2)[C@H]2CNC[C@@H]2N(Cc2ccccc2)S(=O)(=O)c2ccc(N)cc2)cc1`, the inhibition constant (Ki) on PRI84V was 0.128 µM; on PRI50V it was 1 µM. `Cc1cn([C@H]2C[C@H](O)[C@@H](COP(=O)(O)OP(=O)(O)O)O2)c(=O)[nH]c1=O`: at Vacc-TMPK, the Ki was 25 µM.

For the molecule `N#Cc1cnn2c(NCCc3cnc[nH]3)nc(Nc3ccccc3)nc12`, on human CK2a (hCK2?, the Ki was 0.36 µM.

Turning to `CN(C)CCOP(=O)(O)OP(=O)(O)O`, at IDI-1, the Ki is 0.00012 µM.
